{
  "source": "paper PMC11579512",
  "about": "“Deoxybouvardin-glucoside induces apoptosis in non-small cell lung cancer cells by targeting EGFR/MET and AKT signaling pathway” (EXCLI Journal, 2024)",
  "system": "HCC827 cells",
  "assay": "Soft agar anchorage-independent growth, HCC827",
  "format": "cell-based, human",
  "settings": "2 weeks; GEF 1 μM, SAV 2 nM or both",
  "procedure": "The anchorage-independent cell growth assay was performed in 6-well plates with dual agar layers containing 0.6 % agar (lower layer) and 0.3 % agar (upper layer) supplemented with BME, 2 mM L-glutamine, 5 μg/ml gentamicin, and 10 % FBS. After 2 weeks of incubation, the number of colonies was assessed using a microscope (Leica, Wetzlar, Germany), and the mean colony area was analyzed using i-Solution ^TM software (Vancouver, BC, Canada).",
  "data": [
    {"smiles": "C[C@@H](c1ccc2nccn2c1)n1nnc2ncc(-c3cnn(C)c3)nc21", "note": "[SAV, savolitinib, reference compound]", "values": [
      {"measurement": "colony number, Control %", "value": 110.58, "unit": "%"}
    ]}
  ]
}
